# Apparent affinities of Ab-95 variants for a coronavirus HR2 peptide

Values reported by Engelhart et al. 2022, doi:10.1038/s41597-022-01779-4 (FLAb copy).

Binding partner: SARS-CoV-2 spike HR2 peptide, sequence PDVDLGDISGINAS.

The variants keep the heavy chain, the linker and the frameworks of Ab-95 (scFv order VH, three GGGGS repeats, VL).
VH: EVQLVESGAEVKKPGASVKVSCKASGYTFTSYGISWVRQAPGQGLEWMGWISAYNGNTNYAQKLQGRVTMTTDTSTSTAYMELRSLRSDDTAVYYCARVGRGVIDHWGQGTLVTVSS
VL: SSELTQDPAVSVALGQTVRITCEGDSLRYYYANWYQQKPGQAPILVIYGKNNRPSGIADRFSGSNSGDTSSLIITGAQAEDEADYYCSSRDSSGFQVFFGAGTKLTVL

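Variants in AAYL52 differ from the parent at up to three CDR positions; double and triple changes were sampled at random. In AlphaSeq, yeast of one mating type display the scFv and yeast of the other type display the target. Pairs that bind mate more often; barcode pairs of the diploids are counted by sequencing. Read counts were normalised to the haploid input and turned into Kd by a linear fit to BCL2-family pairs of known affinity, for each replicate. There are three technical replicates.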

Variants are written as CDR1, CDR2 and CDR3 of the light chain (limits as in the source). Parent: EGDSLRYYYAN, GKNNRPS, SSRDSSGFQVF.
This list gathers variants with a substitution at S92 (VL, numbered from residue 1).
Values are log10 of the apparent Kd in nM; lower means stronger binding.
A mean of the replicates is given; it leaves out those without a signal.
An entry "nd" has no value in the source: the pair was not observed among the diploids in that replicate. This suggests poor binding but is not conclusive.

For EGDSLRYYYAN | GKNNRPS | SSHDHSYFQVF, the assay gave 3.36, 2.97, 4.13 (mean 3.49; controls 2 of 9). With EGDSLRYYYHN | GKNNRPV | SSRDNSGFQVF the result was nd, nd, 3.86 (controls 2 of 9). With EGDSLRYYYAN | GCQNRPS | SSRDCSGFQVF the result was nd, nd, nd (controls 2 of 9). With LGDSLRYYRAN | GKNNRPS | SSRDMSGFQVF the result was 2.80, 2.84, 2.25 (mean 2.63; controls 3 of 9). Variant EGDSLRYYYAN | GKKNRPS | SSDDESGFQVF gave 4.50, nd, nd (controls 0 of 9). Variant EGDSYRYYYAN | GKSNRPS | SSRDLSGFQVF gave 5.36, nd, nd (controls 3 of 9). Variant EGDSLDYYYAN | GKNNRPS | SSRDVSGFLVF showed 2.69, 3.92, 2.80 (mean 3.14; controls 4 of 9).

Variant EGDTLRYYYAN | GKNNSPS | SSRDISGFQVF gave nd, nd, nd (controls 1 of 9). For EGDSLRVYYAN | GKNNRPS | SSRDWSGFQVF, the assay gave nd, nd, nd (controls 2 of 9). For EGDSLRYYYAN | GHNNRES | SSRDDSGFQVF, the assay gave 3.86, 3.15, 3.46 (mean 3.49; controls 3 of 9). Variant EGDSLQYYYAN | GKNNRPS | SSRDGSGFLVF gave 3.83, 3.50, 2.32 (mean 3.22; controls 4 of 9). With EGDSLRRYYAN | GKNNRPS | SSRDYSGGQVF the result was nd, nd, nd (controls 2 of 9). Variant EGDSLRYYIVN | GKNNRPS | SSRDHSGFQVF gave 1.99, 2.34, 2.06 (mean 2.13; controls 5 of 9). Variant EGDSLSYYYAN | GKNNRPS | SSRQFSGFQVF showed nd, nd, nd (controls 1 of 9).

For EGDSLRYYYAN | GKNNFPS | SSRDWSGFQQF, the assay gave nd, 5.35, nd (controls 3 of 9). Variant EGDSLRYYYAN | GKNNRPS | SSMMTSGFQVF showed 2.24, 3.43, 2.09 (mean 2.59; controls 5 of 9). Variant EGDSLPYYYAN | GKNNRPS | SSRDLSGFQYF showed nd, nd, nd (controls 0 of 9). Variant EGDSLRYYYAN | GKNNSPS | SSMDHSGFQVF gave 4.10, nd, 3.00 (mean 3.55; controls 2 of 9). Variant EGDSLRYYYAN | GKNNRYS | SSNDESGFQVF gave 3.96, nd, 3.58 (mean 3.77; controls 1 of 9). For EGDSLRYYYAN | GKGNRPS | SHRDQSGFQVF, the assay gave 3.50, 3.00, 2.01 (mean 2.84; controls 1 of 9). Variant EGDSLRYGYAN | GKNNRPS | SNRDPSGFQVF gave 1.07, 0.89, 0.44 (mean 0.80; controls 5 of 9).

With EGDSKRYYYAN | GKNNRPS | SSRDASGFPVF the result was 4.48, nd, 4.10 (mean 4.29; controls 4 of 9). With EGDSLRYYYAN | GKNNEPS | SSRDYSGFHVF the result was 3.91, 3.15, 4.40 (mean 3.82; controls 0 of 9). Variant EGDSLRYYYAN | GNNNRPS | SSCDLSGFQVF showed nd, 3.72, 4.03 (mean 3.87; controls 3 of 9). For EGDSLRYYYAN | DKNNRPS | SSRDQSGFQFF, the assay gave 2.20, 2.10, 1.76 (mean 2.02; controls 1 of 9). With SGDSLRYYYAN | GKNNRPQ | SSRDPSGFQVF the result was 1.94, 1.89, 1.74 (mean 1.86; controls 1 of 9). Variant EGDSLRYYYAN | GDNNRPS | SSRDVSGFQVI gave 2.51, 2.31, 1.84 (mean 2.22; controls 6 of 9). For EGDYLRYYYAF | GKNNRPS | SSRDVSGFQVF, the assay gave 4.97, 4.68, nd (mean 4.82; controls 6 of 9).

Variant EGDSLRYYNAN | GKNNRPS | SSRDLSGFQVM gave 3.52, 3.79, 2.97 (mean 3.43; controls 1 of 9). For RGDSLRYYYAN | GKNNRPS | SSRDCSGMQVF, the assay gave 3.88, 4.52, 2.55 (mean 3.65; controls 0 of 9). With EGDSLRYYYAN | GKNNRPS | SKRDHQGFQVF the result was nd, 2.76, 3.58 (mean 3.17; controls 2 of 9). Variant EGDSLRYYYMN | GKNNRPS | SSRDISGFQCF gave 4.36, nd, 3.81 (mean 4.09; controls 3 of 9). For EGDSLRPYYAN | GKQNRPS | SSRDESGFQVF, the assay gave 3.60, 3.03, 3.23 (mean 3.29; controls 2 of 9). Variant EGDSLRYYYAN | GKNNRDR | SSRDESGFQVF showed 3.50, 4.16, 3.35 (mean 3.67; controls 0 of 9). Variant EGDSLRYYYAN | DKNNRPY | SSRDRSGFQVF showed 2.28, 2.39, 2.18 (mean 2.28; controls 2 of 9).

Variant EGDMLRYYYAN | GKNNRPS | SSRDRSGFQVF showed 4.40, 2.79, nd (mean 3.60; controls 2 of 9). For EGDSLRYYYAN | GKNNRPS | SSRDTSGFQVF, the assay gave 2.30, 2.63, 1.94 (mean 2.29; controls 4 of 9). Variant EGDSLRYYYLN | GKNNRPS | SGRDWSGFQVF showed nd, nd, nd (controls 3 of 9).

Again, the first 3 entries without any signal:

CDR-L1	CDR-L2	CDR-L3	replicates, log10 nM	log10 Kd (nM), mean	empty controls
EGDSLRYYYAN	GCQNRPS	SSRDCSGFQVF	nd, nd, nd	nd	2/9
EGDTLRYYYAN	GKNNSPS	SSRDISGFQVF	nd, nd, nd	nd	1/9
EGDSLRVYYAN	GKNNRPS	SSRDWSGFQVF	nd, nd, nd	nd	2/9

Background: pairings of library AAYL52 with three empty control strains gave a value in 28% of cases (median 3.91, 5th percentile 2.90). Values in that range, when seen in few replicates, are hard to tell from nonspecific mating. The control count says in how many pairings with the empty strains this scFv gave a signal.
In this assay the parent's reference entry averaged 2.31; its copy inside this library read 2.25.